Measurements reported in patent publication US5140009A (Tap Pharmaceuticals, Inc., priority 1990, dated 1992).

Legend:
LHRH receptors = target: T1, LHRH receptors (Rattus norvegicus, UniProt P30969); experiment: Receptor Binding (radioligand receptor binding assay); details: rat pituitary membranes, 2 hours at 4° C.
T1 construct: Pituitary membranes containing LHRH receptors are prepared in batches from quick-frozen rat pituitaries; tissue Hilltop Labs; host or cells: rat pituitary membranes
T1 sequence (P30969 1-327): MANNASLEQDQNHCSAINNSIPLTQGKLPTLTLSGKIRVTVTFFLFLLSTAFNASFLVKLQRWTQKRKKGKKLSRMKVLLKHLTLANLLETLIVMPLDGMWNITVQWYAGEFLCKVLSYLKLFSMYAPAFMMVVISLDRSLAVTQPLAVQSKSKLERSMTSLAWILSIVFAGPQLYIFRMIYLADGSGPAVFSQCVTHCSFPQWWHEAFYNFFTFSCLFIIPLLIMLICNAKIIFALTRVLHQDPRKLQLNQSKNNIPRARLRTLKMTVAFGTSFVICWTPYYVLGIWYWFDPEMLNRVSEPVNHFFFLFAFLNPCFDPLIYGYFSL

Rat pituitaries = target: T2, Rat pituitaries (Rattus norvegicus, UniProt P30969); experiment: In vitro LH release suppression by LHRH antagonists in presence of superagonist [D-Leu^6 -Pro^9 NHEt]LHRH (pA2); format: cell-based; details: table 3; negative log of concentration producing half-maximum suppression of LH; 180 min
T2 sequence (P30969 1-327): T1 sequence (P30969 1-327)

[1] = table 3, radioiodinated [D-Leu^6 -des Gly^10 ]-LHRH ethyl amide 50 pM

| Substance | Receptor Binding pkI (LHRH receptors; table 4, radioligand 50 pM) | Receptor Binding pkI (LHRH receptors; [1]) | LH Inhibition pA2 (Rat pituitaries) |
| --- | --- | --- | --- |
| (2-10)[N-(alpha-Morpholinocarbonyl)-D-4-Cl-Phe^2 -D-Thia^3 -D-Lys^6 -D-Ala^10 ]LHRH [Compound 228] | 10.68 |  |  |
| (3-10)[N-(3-(4-Fluorophenyl)propionyl)-D-1-Nal^3 -D-Lys^6 (N-epsilon-4-methoxybenzoyl)-Lys^8 (N-epsilon-isopropyl)-D-Ala^10 ]LHRH [Compound 206] | 11.69 |  |  |
| (3-10)[N-(3-(4-Fluorophenyl)propionyl)-D-Trp^3 -NMeTyr^5 -D-Lys^6 (N-epsilon-nicotinyl)-D-Ala^10 ]LHRH [Compound 163] | 10.60 |  |  |
| N-(2-(1-Naphthylmethyl)-4-ethylamidosuccinyl)-Trp -Ser-Tyr-D-Trp-Leu-Arg-ProNHEt [Compound 132] |  | 10.05 |  |
| (3-9)[N-(Phenylacetyl)-Trp^3 -D-Trp^6 -Pro^9 -NHEt]LHRH [Compound 67] |  | 9.24 | 8.20 |
| (2-10)[N-(alpha-Morpholinocarbonyl)-D-4-Cl-Phe^2 -D-Thia^3 -NMeTyr^5 -D-Lys^6 -D-Ala^10 ]LHRH [Compound 229] | 9.68 |  |  |
| (3-9)[N-(3-(4-Fluorophenyl)propionyl) -D-Trp^3,6 -4-OH-Pro^4 -Pro^9 NHEt]LHRH [Compound 146] | 8.90 |  |  |
